Entries after “also recorded” stand apart in the source; their conditions may differ.
Columns and labels:
IL-20 = experiment: Protein quantification of cytokines and chemokines in tumours; type: in vivo, mice; details: after treatments; vs rHSA-DMSO, n=3
CTLA-4 = experiment: Flow cytometry of tumour-infiltrating T cells: CTLA-4 expression; type: in vivo, BALB/c mice; details: CT26, BALB/c
[1] = Carboxyhaemoglobin (CO-Hb) levels in circulation after i.v. injection; type: in vivo, mice; details: intravenous administration; 30 minutes after i.v. injection
CT26 tumours [2] = experiment: CT26 tumours in immunocompromised NSG mice; type: in vivo; details: daily treatment, vs rHSA-DMSO
[3] = test system: bone marrow-derived macrophages; experiment: BMDM macrophage polarisation (M1, M2a, M2c); type: cell-based, C57BL/c mice; details: BMDM polarised 24 h
[4] = test system: tumour-infiltrating lymphocytes; experiment: Flow cytometry of tumour-infiltrating lymphocytes and TNF-α/IFNγ-producing cells; type: in vivo, BALB/c mice; details: CT26 tumours, BALB/c
CT26 tumours [5] = experiment: CD4 and CD8 T cell depletion in CT26 tumour-bearing BALB/c mice; type: in vivo; details: depleting antibodies
[6] = CO biodistribution in mice (CO level determination in tissues); type: in vivo
CT26 cells [7] = test system: CT26 cells
[8] = target: tumour-associated macrophages and monocytes; experiment: Flow cytometry of the myeloid compartment in CT26 tumours; type: in vivo, BALB/c mice
CT26 cells [9] = experiment: Live-imaging of CO release with COP-1 in CT26 cells; type: cell-based, mouse; details: CT26 cells incubated 30 minutes with conjugate; imaged up to 60 minutes after COP-1
PD-1 = experiment: Flow cytometry of tumour-infiltrating T cells: PD-1 expression; type: in vivo, BALB/c mice; details: CT26, BALB/c
MC38 cells = experiment: MC38 colon carcinoma model in C57BL/c mice; type: in vivo
[10] = test system: bone marrow-derived macrophages; experiment: Bone marrow-derived macrophage (BMDM) differentiation culture; type: cell-based, C57BL/c mice
CT26 tumours [11] = experiment: CT26 colon carcinoma tumour growth and survival in BALB/c mice; type: in vivo; details: vs rHSA-DMSO
[12] = Toxicology and histology scores in tissues of treated mice; type: in vivo
differentiated BMDMs = experiment: Cytotoxicity assay of differentiated BMDMs; type: cell-based, C57BL/c mice; details: read-out: G150
BM cells = experiment: Cytotoxicity when added at the same time as BM cells; type: cell-based, C57BL/c mice; details: 5 or 10 μM

What does the source list for “rHSA-CORM: artificial albumin metalloprotein: recombinant human serum albumin (Recombumin) metalated with CORM-3, carrying Ru(CO)2 groups”?
level of IL-20 in tumours (IL-20): dramatic reduction; also recorded: completely abrogated; expression of CTLA-4 in T cells (CTLA-4): reduced; formation of CO-Hb species in blood [1]: did not observe any increase; survival (CT26 tumours [2]): no significant difference; tumour size (CT26 tumours [2]): no significant difference; expression of M1, M2a and M2c lineage markers [3]: reducing the expression; TNF-α- and IFNγ-producing CD8 and NK cells [4]: increase; tumour-infiltrating lymphocyte abundance [4]: not having differences; anti-tumour effect after CD4 T cell depletion (CT26 tumours [5]): CD4 T cells were redundant; anti-tumour effect after CD8 T cell depletion (CT26 tumours [5]): depletion of CD8 T cells reversed the effects; CO delivery to tumours [6]: specifically delivering significant amounts of CO to tumours; cell viability (direct cytotoxicity) (CT26 cells [7]): no significant difference; Ki-67 expression in tumour macrophages ([8]; in vivo): reduced; abundance of neutrophils in tumours ([8]; vs rHSA-DMSO): increased the abundance; abundance of TAMs in tumours ([8]; vs rHSA-DMSO, n=4): reduce the abundance; abundance of monocytes in tumours ([8]; vs rHSA-DMSO, n=4): reduce the abundance; CO accumulation in tumour cells (COP-1 live imaging) (CT26 cells [9]): accumulate in tumour cells over time; expression of PD-1 in T cells (PD-1): reduced; anti-tumour effectiveness (tumour weight) (MC38 cells): equally effective; macrophage proliferation (Ki-67) ([10]; BMDM in vitro, day 2 and 6 of differentiation): No differences; number of cells after macrophage differentiation ([10]; BMDM in vitro, day 6): reduction of the number of cells; monocyte-to-macrophage differentiation ([10]; conjugate added 24 h after seeding, 1 μM): no differences; CT26 tumour growth (CT26 tumours [11]; BALB/c, daily i.t. 30 mg kg^−1): slowed; inguinal lymph node (iLN) size neighbouring tumours (CT26 tumours [11]; CT26, BALB/c, daily i.t. 30 mg kg^−1, day 13): some swelling; also recorded: larger; survival (CT26 tumours [11]; CT26, BALB/c, daily i.t. 30 mg kg^−1, p=0.0034): significantly improved; tumour size at day 13 (CT26 tumours [11]; CT26, BALB/c): considerably smaller; metastasis: tumour cells in organs (histology scores) ([12]; tumour-bearing treated mice): no tumour cells were detected in the organs; signs of toxicity in tissues ([12]; vs rHSA-DMSO treated mice): nor have we detected any given signs of toxicity; IC50 (differentiated BMDMs): 80 µM; cell death in cultures (BM cells): near-complete cell death

— US20230124013A1, “USE OF CONJUGATES COMPRISING TUMOUR-SELECTIVE LIGANDS AND GROUPS CAPABLE OF RELEASING CARBON MONOXIDE (CO), FOR EXERTING IMMUNOMODULATORY EFFECTS IN CANCER TREATMENT” (Instituto de Medicina Molecular João Lobo Antunes, priority 2020, published 2023)
